## Binding of CDR-mutated scFvs to a peptide of the spike HR2 region

From the AlphaSeq antibody data of Li et al. 2023 (doi:10.1038/s41467-023-39022-2), copy in the FLAb collection.

Antigen: PDVDLGDISGINAS, a 14-residue peptide of the SARS-CoV-2 spike HR2 region.

Each scFv is VH, three GGGGS repeats, VL, as in the parent Ab-14, and differs from it in the CDRs of the heavy chain only.
VH: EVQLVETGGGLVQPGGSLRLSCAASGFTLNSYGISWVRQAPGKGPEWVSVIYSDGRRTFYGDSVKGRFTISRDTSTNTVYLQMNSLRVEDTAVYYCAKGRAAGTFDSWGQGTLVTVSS
VL: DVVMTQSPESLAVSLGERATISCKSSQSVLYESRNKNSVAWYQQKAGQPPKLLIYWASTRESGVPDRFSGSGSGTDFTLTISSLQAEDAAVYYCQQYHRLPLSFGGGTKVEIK

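The starting antibody came from a phage panning campaign against this peptide. This is the validation round: designs drawn from the data on random variants, tested in the same kind of assay. Several design methods are mixed in this list. In AlphaSeq, yeast of one mating type display the scFv and yeast of the other type display the target. The frequency of each diploid, read from paired DNA barcodes, reflects how well the two displayed proteins bind. Scores were corrected for input abundance and mapped to Kd with protein pairs of known affinity run in the same pool. Each pool was mated in six replicate cultures.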

Positions count from residue 1 of the parent VH; T28S puts S in place of T.
Variants here have at most six changes.
Affinities are written as log10 Kd with Kd in nM; a lower number is a better binder.
A mean of the replicates is given; it leaves out those without a signal.
"ND" means that the variant was in the library but no mating with the target was seen in that replicate; the authors take this as a sign of poor binding, and no number exists.
The list is sorted by this average, lowest first, undetected variants last.
A sequence measured in both rounds can read differently, since the two assays cover different ranges.

Variant T28S S31D S63D A101T showed -0.28, -0.35, -0.24, -0.69, -0.25, -0.31 (mean -0.35).
Variant G26E T28D G61Q A101T showed 0.12, -0.36, 0.10, -0.33, -0.64, -0.44 (mean -0.26).
Variant T28A S53A showed -0.24, -0.37, -0.12, -0.24, -0.36, 0.11 (mean -0.20).
Variant G61S R100M S107T showed 0.17, 0.26, -0.04, 0.03, -0.28, -0.19 (mean -0.01).
Variant S31E G61S R100Q A101F showed 0.46, 0.50, 0.00, 0.05, -0.16, 0.23 (mean 0.18).
Variant T28D G61A A101E S107R showed -0.58, 0.51, -0.41, ND, 1.88, 0.30 (mean 0.34).
Variant S31E D62E G103V showed 0.56, 0.04, 0.71, 0.37, 0.08, 0.67 (mean 0.40).
Variant T28S R100K A101T S107D showed 0.44, 0.64, 0.45, 0.37, 0.47, 0.66 (mean 0.51).
Variant T28V S31D R100K showed ND, 1.05, 0.58, -0.53, 0.01, 1.73 (mean 0.57).
Variant S31E G61T A101F D106N showed ND, ND, ND, ND, ND, 1.09.
Variant F27D R100E T104K showed 0.99, ND, ND, ND, 1.18, ND (mean 1.09).
Variant T28N G61A S63R R100N showed 0.51, 0.76, 1.66, 2.05, 1.17, 1.28 (mean 1.24).
Variant T28Q S31E R100Q S107N showed 2.21, 1.75, 1.04, 0.74, 1.37, 0.71 (mean 1.30).
Variant G26M T28E S53A showed 0.97, 0.82, 2.81, 1.57, 1.90, 1.99 (mean 1.68).
Variant T28Q S63Q A101T S107L showed 2.26, 1.51, 2.32, ND, 1.23, 1.20 (mean 1.70).
Variant F27Q T28D A101L showed 2.06, 1.67, 1.53, 1.98, 1.83, 1.90 (mean 1.83).
Variant T28E R56S R100A A101N showed ND, 1.94, 2.00, 1.59, ND, ND (mean 1.84).
Variant T28W S31E G61I R100Q showed 0.55, ND, 1.86, 1.22, 3.08, 2.54 (mean 1.85).
Variant N30E S63Q A101T showed 0.91, 2.16, 1.78, 1.79, 2.54, 2.13 (mean 1.89).
Variant F27I D54K F59M G61I R100Q S107L showed ND, ND, ND, 2.00, ND, ND.
Variant T28C R56M A102V showed ND, ND, ND, ND, 2.17, ND.
Variant N30E S31M showed ND, ND, ND, ND, ND, 2.48.
Variant S53A F105N D106K showed ND, ND, ND, ND, ND, ND.
Variant F27P R56N G61C A102G showed ND, ND, ND, ND, ND, ND.
Variant S31E S35K T58Q G103V S107C showed ND, ND, ND, ND, ND, ND.
Variant A101L S107T showed ND, ND, ND, ND, ND, ND.
Variant G26H L29V showed ND, ND, ND, ND, ND, ND.
Variant N30L G61L S107D showed ND, ND, ND, ND, ND, ND.
Variant T28W S31E S63N A101T showed ND, ND, ND, ND, ND, ND.
Variant A101T D106T S107V showed ND, ND, ND, ND, ND, ND.

The first 2 variants above that were never detected:

changes,log10 Kd (nM) by replicate,"mean, log10 nM"
S53A F105N D106K,"ND, ND, ND, ND, ND, ND",ND
F27P R56N G61C A102G,"ND, ND, ND, ND, ND, ND",ND

In the paper, a design with two or fewer of six values counts as a poor binder.
Of ten entries with the parent sequence, four were seen in most replicates (averages 0.34 to 2.37), three in one and three in none, so single entries are noisy.
Background: pairings of all heavy chain designs with three empty control strains gave a value in 1% of cases (median 2.08, 5th percentile 0.84). Values in that range, when seen in few replicates, are hard to tell from nonspecific mating.